Read-outs that look alike come from different tables or passages of the source.
Tested on: human preadipocytes
Details: horizontal line in FIG. 5

CN(CCOc1ccc(CC2SC(=O)NC2=O)cc1)c1ccccn1 (centres unmarked) [BRL49653]
Oil Red O absorbance (50 nM): approximately 0.2 OD units
Oil Red O absorbance (1 μM BRL49653): approximately 0.2 OD
